The record followed here is BindingDB's records for doi:10.1021/acs.jmedchem.5b00801 (Duquesne University, 2015).

A short description of assay [1]: Binding affinity to human FRbeta expressed in Chinese hamster D4 cells assessed as cell growth inhibition after 96 hrs by CellTiter-Blue assay in presence of 200 nM folic acid. For orientation: Alamar Blue is a resazurin reagent that responds to reducing activity.
Assay [2] can be described thus: Binding affinity to human FRalpha expressed in Chinese hamster RT16 cells assessed as cell growth inhibition after 96 hrs by CellTiter-Blue assay in presence of 200 nM folic acid.
A short description of assay [3]: Binding affinity to human PCFT expressed in Chinese hamster R2/PCFT4 cells assessed as cell growth inhibition after 96 hrs by CellTiter-Blue assay.

pIC50: −log10 of the molar value.

Consider `Nc1nc2[nH]c(CCCc3csc(C(=O)N[C@@H](CCC(=O)O)C(=O)O)c3)cc2c(=O)[nH]1`, for which the values for the negative logarithm of the IC50 (pIC50) in assay [1] and in assay [2] were 6.25 and 6.31, respectively.

With `Nc1nc(N)c2c(CCCc3csc(C(=O)N[C@@H](CCC(=O)O)C(=O)O)c3)coc2n1`, the pIC50 in assay [3] and in assay [2] was less than 6.00 in each case. Turning to `Nc1nc(N)c2c(CCCc3cc(C(=O)N[C@@H](CCC(=O)O)C(=O)O)cs3)coc2n1`, the pIC50 – broadly, the negative decadic logarithm of the IC50, by convention in mol/L – in assay [2] is less than 6.00.
